## Antibody variant affinities, Ab-14 light chain, assay B

Binding partner: SARS-CoV-2 spike HR2 peptide, sequence PDVDLGDISGINAS.

Ab-14 is the parent antibody, in scFv form: VH, then a 15-residue (Gly4Ser)3 linker, then VL. The heavy chain is unchanged in all variants.
VH: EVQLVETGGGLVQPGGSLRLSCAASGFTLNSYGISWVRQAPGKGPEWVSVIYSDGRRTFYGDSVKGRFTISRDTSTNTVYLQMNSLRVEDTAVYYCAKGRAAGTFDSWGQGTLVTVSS
VL: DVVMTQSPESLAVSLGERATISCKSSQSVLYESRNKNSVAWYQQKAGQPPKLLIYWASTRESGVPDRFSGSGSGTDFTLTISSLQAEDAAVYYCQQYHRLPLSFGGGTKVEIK

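Phage display of a naive human antibody library on the peptide gave the parent. Designed CDR sequences, proposed from the first random library and measured here. Group labels follow the data file (Ctrl: baseline library sampled from a position-specific scoring matrix, with some repeated check sequences; En: ensemble of fine-tuned language models; GP: Gaussian process model; HC: hill climbing; Gen: genetic algorithm; Gibbs: Gibbs sampling; a sequence that several methods proposed may carry one label only). The assay is AlphaSeq: two haploid yeast populations carry antibody and antigen on their surface. Pairs that bind mate more often; barcode pairs of the diploids are counted by sequencing. Scores were corrected for input abundance and mapped to Kd with protein pairs of known affinity run in the same pool. Mating was done six times.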

Variants are written as CDR1, CDR2 and CDR3 of the light chain (limits as in the source). Parent: KSSQSVLYESRNKNSVA, WASTRES, QQYHRLPLS.
This list holds designs with more than six substitutions.
Values are apparent Kd, the geometric mean of the replicates that gave a signal; lower means stronger binding.
"nd" marks a missing value. The strain was present, yet no cells mated with the target were sequenced in any replicate, which points to weak or no binding.
Background: pairings of all light chain designs with three empty control strains gave a value in 4% of cases (median 430 nM, 5th percentile 38 nM). Values in that range, when seen in few replicates, are hard to tell from nonspecific mating.
The authors' rule: three or more of the six replicates give a measured affinity, fewer mean a poor binder.
Of ten entries with the parent sequence, four were seen in most replicates (averages 2.2 nM to 240 nM), three in one and three in none, so single entries are noisy.
The range of this assay differs from that of the first round, and the authors advise against merging the two.

MLSMMEQHMGDRMHNVA, DTNVAKM, QDYFRLPLM [En_Gibbs]: nd (0 of 6 replicates).
MFSQLTYTGSRTRNAVA, QASTREN, QQYHHLPLM [En_HC]: 1.5 nM (5 of 6 replicates).
KVSEFMRGLMSRQDSIA, DNVTRNS, QQYDRLPLS [En_Gen]: 38 nM (3 of 6 replicates).
TITGVMTQMSHSKNNVA, EVSTRLD, QQYFRLPLE [En_Gen]: 3.5 nM (6 of 6 replicates).
SLVQKADYMDSERNNIA, NMRLRNE, QQYFHLPLT [En_Gibbs]: 5.5 nM (6 of 6 replicates).
KLTNVTGTEKVLGNNVA, EMETRER, QQYNRLPLA [En_Gen]: 100 nM (4 of 6 replicates).
TISQATYWESFNKNSVA, QTSTREE, QDYDRLPLS [En_HC]: 2.2 µM (1 of 6 replicates).
KITGMWTFQSHNRNNIA, EESTRED, QSYHRLPLS [En_HC]: 2.9 nM (6 of 6 replicates).
MISDLTMYGSRNKNSVA, DLSTRGK, QQYHRLPLS [En_HC]: 1.2 nM (6 of 6 replicates).
HVSESIFAQSKMRNSVA, ENETRES, QQYDRLPLS [En_HC]: 540 nM (6 of 6 replicates).
KYSQSQLYEDRMVNSVA, NASQRES, QQYHRLPLS [GP_Gibbs]: 1.2 nM (6 of 6 replicates).
KLYDMAAVTMNNIRNVA, DNSTREQ, QQYHRLPLS [En_Gen]: 2.7 nM (6 of 6 replicates).
MVNGIMDHLSKNTNNVA, ETTTREE, QQYERLPLS [En_Gen]: 12 nM (5 of 6 replicates).
HISHSVGMTSRNKNSVA, ENSTRED, QQYDRLPLS [En_HC]: 3.0 nM (2 of 6 replicates).
MLSQMTGWGMKTSNSVA, QAQTRFN, QQYYRLPLI [En_Gen]: 54 nM (6 of 6 replicates).
TISQMTSWMSNKKNNVA, EVTTREA, QQYDRLPLA [En_Gen]: 20 nM (4 of 6 replicates).
KVMQSNWYESRWKNSVA, NASQRES, QQYHRLPLS [GP_Gibbs]: 2.8 nM (6 of 6 replicates).
KLYYDAAERVMDTENIA, EKTISYQ, QQYHRLPLS [En_Gibbs]: 56 nM (5 of 6 replicates).
KVMQSELYEQRNANNVA, NGSTRES, QQYHRLPLS [GP_Gibbs]: 470 pM (6 of 6 replicates).
KISGMSNHQSSVHNNVA, ENVTRVE, QQYFRLPLS [En_Gen]: 1.9 nM (6 of 6 replicates).
NMQLQVRSDNNNKYNIA, DEMLREY, QQYNRLPLS [En_Gibbs]: 6.8 nM (6 of 6 replicates).
KITATMRFEQKISNNIA, EVTTRSK, QQYFRLPLS [En_Gen]: 3.8 nM (6 of 6 replicates).
KVSQSYCYEDRNKNNVA, NASDRMS, QQYHRLPLS [GP_Gibbs]: 2.4 nM (6 of 6 replicates).
KINGVLINNGIDMNAIA, QENISNL, QQYFHLPLS [En_Gibbs]: 98 nM (6 of 6 replicates).
TIGQVMNWESRNTNSVA, QTSTREE, QDYDRLPLS [En_HC]: 55 nM (1 of 6 replicates).
MVSQLMLWGLHAKNSIA, HAQMRLN, QQYDRLPLM [En_Gen]: 270 nM (1 of 6 replicates).
KLSNSNLYESRNGNSVA, NASTRYH, QQYHRLPLS [GP_Gibbs]: 6.8 nM (6 of 6 replicates).
MISQLYNMGSFAINSVA, QASIRNS, QQYDRLPLI [En_Gen]: 13 nM (6 of 6 replicates).
QLSAVQDMTSKNKNSVA, EQSTREN, QQYHRLPLS [En_HC]: 2.0 nM (6 of 6 replicates).
IISQSMLYESATHNSIA, QTETREE, QQYHHLPLI [En_HC]: 13 nM (6 of 6 replicates).
MVTQMAMTGMKNKRSVA, NAETREN, QQYHHLPLI [En_Gen]: 23 nM (6 of 6 replicates).
MLSLNLHDMDANMNNVA, EMNKLTA, QDYHRLPLH [En_Gibbs]: 4.1 nM (6 of 6 replicates).
WLPMEEQGSDRGKSSVA, DSDARMA, QQYQRLPLS [En_Gibbs]: 1.8 nM (6 of 6 replicates).
HVSLQLRPGREIQNPIA, EGSHRAA, QQYDRLPLG [En_Gibbs]: 3.4 nM (6 of 6 replicates).
SLFESEREELSVEQNIA, DGTEHMR, QQYFQLPLL [En_Gibbs]: 69 nM (4 of 6 replicates).
KVDQSVWKESRNKNSVA, AASWREE, QQYHQLPLS [Ctrl]: 3.5 nM (6 of 6 replicates).
KLSQSVEYESRLKNSVA, NASQRLE, QQYHRLPLS [GP_Gibbs]: 920 pM (6 of 6 replicates).
HITYGMYVSGRYKSNIA, QAETRMK, QQYDRLPLM [En_Gen]: 63 nM (6 of 6 replicates).
SLGLMTMLEEYVRNSVA, NNSTREE, QQYDRLPLS [En_Gen]: 47 nM (1 of 6 replicates).
KLSQQNKYESRMMNSVA, NASQRES, QQYHRLPLS [GP_Gibbs]: 1.5 nM (6 of 6 replicates).
KLSQSVLFFGHAINSVA, EMETREN, QQYDRLPLS [En_HC]: 7.4 nM (6 of 6 replicates).
MLSDLVKMGVRNTNSVA, DNSTRGS, QQYDRLPLS [En_HC]: 230 nM (4 of 6 replicates).
NLGGEDFNDTRGMKAVA, DVSEVGD, QHYSRLPLS [En_Gibbs]: 12 nM (6 of 6 replicates).
KLRMLTLTEGYFKNSVA, QASTREN, QSYHRLPLS [En_HC]: 8.1 nM (6 of 6 replicates).
HLSHMSGVESVKHNSVA, ENSTREN, QQYDRLPLS [En_Gen]: 120 nM (5 of 6 replicates).
HLGMATMLQETVRNSVA, NNSTRES, QQYDRLPLS [En_Gen]: 89 nM (3 of 6 replicates).
TLSDLMYMESRNYNSVA, DLVKRES, QQYHRLPLS [En_HC]: 1.0 nM (6 of 6 replicates).
HMMHNQLDYKNRENNIA, HESMRLV, QQYSQLPLT [En_Gibbs]: 4.1 nM (6 of 6 replicates).
KVEQSMGYESRNQNSVA, EASHRES, QQYHRLPLW [GP_Gibbs]: 2.0 nM (6 of 6 replicates).
HMSALTLQGMRARNSVA, QMTTREN, QQYDHLPLA [En_Gen]: 11 nM (5 of 6 replicates).
KLQQFYRMETRNKNSVA, DNSTRES, QDYDRLPLS [En_HC]: nd (0 of 6 replicates).

Excerpt, the final 5 entries:

The variant TLSDLMYMESRNYNSVA, DLVKRES, QQYHRLPLS [En_HC] gave 1.0 nM (6 of 6 replicates).
The variant HMMHNQLDYKNRENNIA, HESMRLV, QQYSQLPLT [En_Gibbs] gave 4.1 nM (6 of 6 replicates).
The variant KVEQSMGYESRNQNSVA, EASHRES, QQYHRLPLW [GP_Gibbs] gave 2.0 nM (6 of 6 replicates).
The variant HMSALTLQGMRARNSVA, QMTTREN, QQYDHLPLA [En_Gen] gave 11 nM (5 of 6 replicates).
The variant KLQQFYRMETRNKNSVA, DNSTRES, QDYDRLPLS [En_HC] gave nd (0 of 6 replicates).

Reference: Li et al. 2023, doi:10.1038/s41467-023-39022-2. File: FLAb, binding data.